Assay results: EP4755401A1, “PHARMACEUTICAL COMPOSITION CONTAINING ANTIBODY-DRUG CONJUGATE OF GLUCOCORTICOID” (Jiangsu Hengrui Pharmaceuticals Co., Ltd., priority 2023, dated 2025)

How the values were obtained:
[1] = biological target: T1, human-derived IL-4Rα on expressing cells (human, UniProt P24394 26-825); assay: flow cytometry on TF-1 cells expressing IL-4Rα, anti-hFab-FITC detection
T1 construct: whole, on cells; TF-1 and Karpas 299 cell lines were identified to express IL-4Rα; Also used here as the target of the HEK-Blue IL-4/IL-13 reporter assay; also called IL-4Rα expressed on TF-1 cells
T1 sequence (looked up): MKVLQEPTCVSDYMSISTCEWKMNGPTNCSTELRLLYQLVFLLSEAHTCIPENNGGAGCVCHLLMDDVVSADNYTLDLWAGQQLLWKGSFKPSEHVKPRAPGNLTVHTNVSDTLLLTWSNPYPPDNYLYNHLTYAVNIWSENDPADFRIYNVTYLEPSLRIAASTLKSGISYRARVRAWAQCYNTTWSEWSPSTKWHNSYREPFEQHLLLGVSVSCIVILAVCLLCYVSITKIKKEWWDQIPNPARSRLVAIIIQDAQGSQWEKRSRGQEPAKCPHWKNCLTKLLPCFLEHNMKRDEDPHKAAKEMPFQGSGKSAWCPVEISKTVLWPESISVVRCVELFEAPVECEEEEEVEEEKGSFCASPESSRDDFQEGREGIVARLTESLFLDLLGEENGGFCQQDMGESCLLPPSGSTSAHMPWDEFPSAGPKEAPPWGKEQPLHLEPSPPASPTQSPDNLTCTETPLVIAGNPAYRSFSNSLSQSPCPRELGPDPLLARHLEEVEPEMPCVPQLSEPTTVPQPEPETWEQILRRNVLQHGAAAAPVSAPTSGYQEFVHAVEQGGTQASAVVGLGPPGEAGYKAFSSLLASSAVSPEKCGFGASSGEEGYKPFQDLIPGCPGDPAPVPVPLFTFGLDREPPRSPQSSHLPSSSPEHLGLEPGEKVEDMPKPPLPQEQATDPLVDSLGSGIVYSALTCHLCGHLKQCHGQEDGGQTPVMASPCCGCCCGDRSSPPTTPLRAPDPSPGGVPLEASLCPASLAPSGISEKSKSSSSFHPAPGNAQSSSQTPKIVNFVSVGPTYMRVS

[2] = biological target: T2, Biotin-labeled human-derived IL-4Rα protein (SinoBiological, CAT# 10402-H08H-B) (human, UniProt P24394 26-232, biotin-labeled (site not stated)); assay: SPR, Biacore 8K, biotin-hIL-4Rα captured on SA chip, test protein as analyte
T2 construct: Bought reagent, captured on an SA sensor chip; also called hIL-4Rα; human-derived IL-4Rα antigen protein
T2 sequence (looked up): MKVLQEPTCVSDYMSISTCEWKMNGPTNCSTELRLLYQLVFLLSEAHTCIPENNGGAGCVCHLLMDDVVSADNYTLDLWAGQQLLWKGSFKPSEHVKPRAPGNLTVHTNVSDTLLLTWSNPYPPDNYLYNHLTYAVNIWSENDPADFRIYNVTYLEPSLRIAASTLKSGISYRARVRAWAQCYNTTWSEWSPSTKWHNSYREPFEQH

B1: antibody-drug conjugate ADC-2 (Fab, V domains shown)
VH: EVQLVESGGGLVQPGGSLRLSCAASGFTFSDYGMHWVRQAPGKGLEWVAFISSGSSIIYYADIVKGRSTISRDNAKNTLYLQMNSLRAEDTAVYYCTRGNKRGFFDYWGQGTLVTVSS
VL: EIVLTQSPATLSLSPGERATLSCRASSSVPYMYWYQQKPGQAPRLLIYLTSNLASGIPARFSGSGSGTDFTLTISSLEPEDFAVYYCQQWRAYPPMLTFGGGTKVEIKR
modifications: budesonide drug-linker (compound 2, maleimide) conjugated after TCEP reduction of 25G7-Fab; conjugated residues and drug load not stated
EC50 [1]: 0.107 nM
Kd [2]: 0.011 nM
